Data on one compound can be found in ChEMBL document CHEMBL1145111, “Synthesis and biological characterization of 1-methyl-1,2,5,6-tetrahydropyridyl-1,2,5-thiadiazole derivatives as muscarinic agonists for the treatment of neurological disorders” (J Med Chem, 2003).

Amino acid sequences for entries named in this document (tags omitted).
UniProt P08172, whole entry: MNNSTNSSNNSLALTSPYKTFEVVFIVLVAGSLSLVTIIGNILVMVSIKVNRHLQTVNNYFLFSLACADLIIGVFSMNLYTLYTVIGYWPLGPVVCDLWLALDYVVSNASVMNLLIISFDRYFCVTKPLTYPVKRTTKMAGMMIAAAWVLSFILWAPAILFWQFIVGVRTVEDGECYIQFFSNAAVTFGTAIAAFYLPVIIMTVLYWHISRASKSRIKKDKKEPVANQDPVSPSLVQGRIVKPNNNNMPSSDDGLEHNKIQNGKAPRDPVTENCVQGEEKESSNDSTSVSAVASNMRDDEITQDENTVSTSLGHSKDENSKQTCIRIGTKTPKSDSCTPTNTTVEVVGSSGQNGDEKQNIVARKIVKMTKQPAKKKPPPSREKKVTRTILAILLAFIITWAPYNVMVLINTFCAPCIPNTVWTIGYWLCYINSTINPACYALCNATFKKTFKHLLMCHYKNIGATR

For assay [1], the target named is T1, Muscarinic acetylcholine receptor M2 (Homo sapiens, UniProt P08172). Nature of the assay: Compound was tested for binding inhibition of [3H](R)-QNB to Muscarinic acetylcholine receptor M2 expressed in A9 L cells. The assay is classed as cell-based, A9L. An outline of the steps:
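Membrane homogenates from transfected A9 L cells expressing the human subtype were incubated with 0.1 nM [³H]-(R)-QNB. Buffer was 25 mM sodium phosphate, pH 7.4, with 5 mM MgCl2. Test ligand covered 14 points from 0.01 nM to 3 mM, 2 h at room temperature. Nonspecific binding was taken with 1000-fold excess unlabeled (R)-QNB. Results are given as pKi, mean ± SEM, in triplicate.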

The target in assay [2] is T1, Muscarinic acetylcholine receptor M2. Nature of the assay: Inhibitory activity was evaluated against Muscarinic acetylcholine receptor M2 expressed in A9 L cells. It counts as cell-based, A9L.

SMILES strings stand for the structures.

In assay [1], `CCCCCCOc1nsnc1C1=CCCN(C)C1` [XANOMELINE] had a Ki of 0.0501 µM. The midpoint of inhibition in assay [2], the IC50, lay at 0.0126 µM.

Usually Ki stands for a dissociation constant, usually derived from enzyme kinetics or from competition with a known ligand. In general, IC50 refers to the concentration that inhibits the measured activity by half. Read a high IC50 as lower potency.
